Among the data in paper PMC4515084 (Chemmedchem, 2015) are mode of inhibition and LipE values, retold here.

The chains behind the UniProt entries cited, without tags or fusion partners. Residues count along the entry.
UniProt P08246, 30-267: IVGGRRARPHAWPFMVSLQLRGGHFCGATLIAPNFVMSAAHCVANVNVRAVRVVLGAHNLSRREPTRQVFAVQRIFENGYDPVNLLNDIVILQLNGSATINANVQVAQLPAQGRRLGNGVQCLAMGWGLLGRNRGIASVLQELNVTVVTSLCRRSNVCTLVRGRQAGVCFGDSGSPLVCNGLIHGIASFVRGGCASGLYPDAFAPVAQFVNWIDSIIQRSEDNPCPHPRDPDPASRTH

For this experiment, the target named is Human neutrophil elastase (HNE) (Homo sapiens, UniProt P08246).

For the compound `CC(=O)C1=C(C)N(c2cccc(C(F)(F)F)c2)C(=O)N[C@@H]1c1ccc(C#N)nc1` [Compound 20], the mode of inhibition result is “competitive inhibition”.

On to `CC1=C(C#N)[C@@H](c2ccc(C#N)cc2S(C)(=O)=O)N(C)C(=O)N1c1cccc(C(F)(F)F)c1` [Compound 29, (4S)-4-[4-Cyano-2-(methylsulfonyl)phenyl]-3,6-dimethyl-2-oxo-1-[3-(trifluoromethyl)phenyl]-1,2,3,4-tetrahydropyrimidine-5-carbonitrile], for which the LipE is given as 7.2 and the mode of inhibition result is “competitive inhibition”.
